Experimental data reported in US20220296535A1, “Antibacterial Dosage Regime Using Cannabinoids” (Botanix Pharmaceuticals Limited, priority 2019, published 2022).

System: 132 strains of Staphylococcus aureus (106 MRSA and 26 MSSA strains)
Assay: MIC50/MIC90 micro-broth dilution, all strains
Conditions: out of the 132 strains

CCC[C@@H]1C[C@@H](C(=O)N[C@@H]([C@H]2O[C@H](SC)[C@H](O)[C@@H](O)[C@H]2O)[C@H](C)Cl)N(C)C1.Cl.O [Clindamycin, Clindamycin hydrochloride monohydrate]
number of resistant strains: 37
